The values that follow are results of earlier work, collected in paper PMC12119672, “Development and evaluation of [^11C]DPA-813 and [^18F]DPA-814: novel TSPO PET tracers insensitive to human single nucleotide polymorphism rs6971” (European Journal of Nuclear Medicine and Molecular Imaging, 2025).

By UniProt entry, the sequences of proteins in these tests, tags left out.
UniProt P30536, whole entry T147A: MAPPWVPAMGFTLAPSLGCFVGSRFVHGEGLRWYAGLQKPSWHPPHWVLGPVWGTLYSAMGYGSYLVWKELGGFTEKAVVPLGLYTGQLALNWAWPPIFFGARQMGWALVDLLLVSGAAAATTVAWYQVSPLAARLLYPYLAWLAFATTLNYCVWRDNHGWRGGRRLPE
UniProt P30536, whole entry, stated change not applied: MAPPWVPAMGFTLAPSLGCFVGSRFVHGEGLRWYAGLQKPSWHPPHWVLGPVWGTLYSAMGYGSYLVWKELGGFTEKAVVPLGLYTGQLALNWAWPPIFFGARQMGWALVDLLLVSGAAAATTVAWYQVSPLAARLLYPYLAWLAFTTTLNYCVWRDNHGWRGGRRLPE

One data set has as its target T1, WT human TSPO (Homo sapiens, UniProt P30536).
T1 construct: expressed in transfected cells
The arrangement: method as in PMID 30108706. The note with it: identical assay conditions; read-out: Ki WT hTSPO; cited from earlier work.

In a further data set the target is T2, A147T human TSPO (Homo sapiens, UniProt P30536).
T2 construct: expressed in transfected cells
Also on record: method as in PMID 30108706. Conditions: identical assay conditions; read-out: Ki A147T hTSPO; cited from earlier work.

The Ki is the dissociation constant of the complex between target and ligand, obtained from inhibition or displacement. On to `CC[C@@H](C)N(C)C(=O)c1cc2ccccc2c(-c2ccccc2Cl)n1` [(R)-PK 11195], for which the Ki at WT human TSPO was 29.2 nM; on A147T human TSPO it was 36 nM.
